Reference: US10259779B2 (WAYNE STATE UNIVERSITY, priority 2016, dated 2019)

Sequences of proteins named here, by UniProt entry; tags and fusion partners are left off. A change or cut given only in a name is not applied to a line headed by its entry.
UniProt Q13547, whole entry: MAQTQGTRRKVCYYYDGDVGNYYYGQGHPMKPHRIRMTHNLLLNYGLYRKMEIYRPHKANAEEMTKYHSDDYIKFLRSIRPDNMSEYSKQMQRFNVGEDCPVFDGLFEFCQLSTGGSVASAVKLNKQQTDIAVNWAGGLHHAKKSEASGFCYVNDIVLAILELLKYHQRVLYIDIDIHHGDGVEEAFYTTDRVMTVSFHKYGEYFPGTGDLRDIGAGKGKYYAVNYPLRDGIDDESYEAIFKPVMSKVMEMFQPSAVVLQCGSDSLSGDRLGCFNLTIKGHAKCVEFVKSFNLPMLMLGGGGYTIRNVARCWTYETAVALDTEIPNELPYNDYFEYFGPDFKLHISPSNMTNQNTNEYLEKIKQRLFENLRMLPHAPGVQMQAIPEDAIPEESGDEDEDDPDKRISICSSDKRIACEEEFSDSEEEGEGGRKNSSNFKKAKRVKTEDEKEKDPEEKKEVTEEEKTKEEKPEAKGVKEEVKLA
UniProt Q92769, whole entry: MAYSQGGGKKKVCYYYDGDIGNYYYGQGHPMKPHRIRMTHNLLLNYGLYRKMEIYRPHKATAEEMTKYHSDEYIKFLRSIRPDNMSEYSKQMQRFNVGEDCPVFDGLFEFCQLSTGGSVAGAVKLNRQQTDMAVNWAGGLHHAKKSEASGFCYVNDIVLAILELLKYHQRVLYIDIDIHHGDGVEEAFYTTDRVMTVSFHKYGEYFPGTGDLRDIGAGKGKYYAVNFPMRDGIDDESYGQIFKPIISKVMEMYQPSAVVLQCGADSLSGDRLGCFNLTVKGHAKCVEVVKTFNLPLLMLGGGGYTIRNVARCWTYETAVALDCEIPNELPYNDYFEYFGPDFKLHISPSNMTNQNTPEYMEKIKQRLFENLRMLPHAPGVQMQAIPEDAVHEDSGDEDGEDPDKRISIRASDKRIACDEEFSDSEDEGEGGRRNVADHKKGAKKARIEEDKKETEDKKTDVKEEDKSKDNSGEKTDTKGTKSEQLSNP
UniProt O15379: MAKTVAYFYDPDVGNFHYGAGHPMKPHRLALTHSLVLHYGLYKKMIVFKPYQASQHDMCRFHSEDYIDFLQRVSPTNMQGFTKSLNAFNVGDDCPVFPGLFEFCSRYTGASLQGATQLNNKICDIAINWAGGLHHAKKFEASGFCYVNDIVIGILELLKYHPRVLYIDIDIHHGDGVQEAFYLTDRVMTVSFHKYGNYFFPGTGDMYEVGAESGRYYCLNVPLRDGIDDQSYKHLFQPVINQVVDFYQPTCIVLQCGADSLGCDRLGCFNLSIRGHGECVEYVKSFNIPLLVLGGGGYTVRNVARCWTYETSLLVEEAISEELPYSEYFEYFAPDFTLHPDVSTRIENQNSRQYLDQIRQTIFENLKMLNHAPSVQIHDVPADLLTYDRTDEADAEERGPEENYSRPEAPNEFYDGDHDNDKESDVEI

Key:
HDAC8 = biological target: T1, HDAC8 (Homo sapiens, UniProt Q9BY41); experiment: Recombinant HDAC8 inhibition (HDAC-Glo); assay type: biochemical; parameters: purchased BPS Bioscience
T1 sequence (Q9BY41 1-377): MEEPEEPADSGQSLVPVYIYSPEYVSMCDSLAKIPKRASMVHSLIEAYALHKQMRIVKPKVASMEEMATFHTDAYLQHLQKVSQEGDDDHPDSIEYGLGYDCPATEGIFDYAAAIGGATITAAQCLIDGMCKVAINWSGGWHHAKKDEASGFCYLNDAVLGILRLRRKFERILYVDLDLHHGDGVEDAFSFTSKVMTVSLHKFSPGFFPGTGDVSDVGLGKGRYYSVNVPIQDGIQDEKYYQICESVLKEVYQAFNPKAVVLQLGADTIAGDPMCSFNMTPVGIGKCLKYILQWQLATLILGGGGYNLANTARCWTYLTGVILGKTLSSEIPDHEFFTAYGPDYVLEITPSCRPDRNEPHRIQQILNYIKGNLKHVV

HDAC1 = HDAC1 (Homo sapiens, UniProt Q13547); experiment: ELISA-based HDAC activity assay, HDAC1
HDAC2 = HDAC2 (Homo sapiens, UniProt Q92769); experiment: ELISA-based HDAC activity assay, HDAC2
HDAC3 = HDAC3 (Homo sapiens, UniProt O15379); experiment: ELISA-based HDAC activity assay, HDAC3
HDAC6 = biological target: T2, HDAC6 (Homo sapiens, UniProt Q9UBN7); experiment: ELISA-based HDAC activity assay, HDAC6
T2 sequence (Q9UBN7 1-1215): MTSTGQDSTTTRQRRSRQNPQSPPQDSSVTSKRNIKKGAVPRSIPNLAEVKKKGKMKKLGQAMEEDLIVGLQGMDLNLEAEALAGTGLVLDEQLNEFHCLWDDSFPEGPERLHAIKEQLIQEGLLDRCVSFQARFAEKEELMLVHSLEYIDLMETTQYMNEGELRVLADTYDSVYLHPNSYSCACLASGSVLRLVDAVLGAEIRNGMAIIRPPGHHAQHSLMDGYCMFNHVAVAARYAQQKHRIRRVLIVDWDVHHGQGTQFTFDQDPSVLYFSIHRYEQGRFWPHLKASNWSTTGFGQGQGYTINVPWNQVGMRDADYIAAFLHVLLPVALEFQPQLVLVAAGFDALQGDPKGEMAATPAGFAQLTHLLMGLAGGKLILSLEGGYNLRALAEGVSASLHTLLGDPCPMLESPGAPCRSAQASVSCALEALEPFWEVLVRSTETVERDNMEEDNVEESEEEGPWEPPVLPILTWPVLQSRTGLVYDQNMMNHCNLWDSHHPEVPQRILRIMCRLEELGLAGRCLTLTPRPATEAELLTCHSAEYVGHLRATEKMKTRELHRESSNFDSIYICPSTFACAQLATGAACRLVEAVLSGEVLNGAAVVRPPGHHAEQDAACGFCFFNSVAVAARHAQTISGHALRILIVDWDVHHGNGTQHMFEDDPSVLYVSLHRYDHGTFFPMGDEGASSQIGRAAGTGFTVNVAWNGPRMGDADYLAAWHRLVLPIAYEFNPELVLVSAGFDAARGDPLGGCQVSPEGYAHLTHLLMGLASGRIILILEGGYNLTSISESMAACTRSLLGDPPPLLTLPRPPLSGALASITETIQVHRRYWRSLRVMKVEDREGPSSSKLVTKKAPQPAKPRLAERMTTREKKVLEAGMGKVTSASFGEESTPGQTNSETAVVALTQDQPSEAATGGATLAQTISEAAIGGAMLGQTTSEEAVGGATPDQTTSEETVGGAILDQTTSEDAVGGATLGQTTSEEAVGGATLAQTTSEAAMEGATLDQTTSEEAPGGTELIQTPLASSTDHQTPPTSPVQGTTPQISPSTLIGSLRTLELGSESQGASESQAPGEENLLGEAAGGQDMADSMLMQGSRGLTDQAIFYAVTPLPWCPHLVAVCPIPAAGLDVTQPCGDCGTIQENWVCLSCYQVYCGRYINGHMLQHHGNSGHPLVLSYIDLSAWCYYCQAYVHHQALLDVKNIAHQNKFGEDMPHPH

Compound: CCCCC(CCCC(=O)Nc1ccccc1)CCC(=O)NO (racemic) [Compound 1c, 4-butyl-N^1-hydroxy-N^8-phenyloctanediamide]
- IC50 (HDAC8): 74 ± 2 nM
- IC50 (HDAC1): 15 µM
- IC50 (HDAC2): 18 µM
- IC50 (HDAC3): 23 µM
- IC50 (HDAC6): 0.088 ± 0.007 µM
